Experiment [1] deals with Mu-type opioid receptor (Homo sapiens) (UniProt P35372). As to the kind of experiment: Agonist activity at human recombinant MOP receptor expressed in CHO-K1 cells assessed as stimulation of [35S]GTPgammaS binding by scintillation proximity assay relative to DAMGO.
The target in experiment [2] is Nociceptin receptor (Homo sapiens) (UniProt P41146). As to the kind of experiment: Agonist activity at human recombinant NOP receptor expressed in CHO-K1 cells assessed as stimulation of [35S]GTPgammaS binding by scintillation proximity assay relative to nociceptin. In general terms: GTPγS resists hydrolysis and so accumulates on activated G proteins.
Experiment [3] deals with Mu-type opioid receptor (Homo sapiens) (UniProt P35372). As to the kind of experiment: Displacement of [3H]naloxone from human MOP receptor expressed in CHO-K1 cells at 1 uM by scintillation proximity assay.
The target in experiment [4] is Nociceptin receptor (Homo sapiens) (UniProt P41146). As to the kind of experiment: Displacement of [3H]nociceptin from human NOP receptor expressed in CHO-K1 cells at 1 uM by scintillation proximity assay. For orientation: Displacement assays read how much labelled ligand stays bound in the presence of the test substance.
The subject of experiment [5] is Mus musculus. As to the kind of experiment: Antinociceptive activity in iv dosed NMRI mouse assessed as increase in latency for tail withdrawal from radiant heat source by tail flick test. Background: Hot-plate and tail-flick tests time the reaction to a heat stimulus.
Experiment [6] deals with Mus musculus. As to the kind of experiment: Antinociceptive activity in orally dosed NMRI mouse assessed as increase in latency for tail withdrawal from radiant heat source by tail flick test.

Protein sequences, listed by entry. Tags and fused reporters are not part of them.
UniProt P35372, whole entry: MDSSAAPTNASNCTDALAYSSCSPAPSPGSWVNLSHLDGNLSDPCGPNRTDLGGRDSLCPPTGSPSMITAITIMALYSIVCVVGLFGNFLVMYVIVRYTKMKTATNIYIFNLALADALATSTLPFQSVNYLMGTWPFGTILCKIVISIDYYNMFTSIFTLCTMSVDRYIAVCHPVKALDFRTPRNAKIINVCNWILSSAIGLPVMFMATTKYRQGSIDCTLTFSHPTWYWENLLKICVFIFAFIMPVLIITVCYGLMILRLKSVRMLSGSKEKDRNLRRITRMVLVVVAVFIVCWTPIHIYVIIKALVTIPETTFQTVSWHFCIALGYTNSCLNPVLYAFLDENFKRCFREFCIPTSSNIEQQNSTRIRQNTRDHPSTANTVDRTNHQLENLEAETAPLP
UniProt P41146, whole entry: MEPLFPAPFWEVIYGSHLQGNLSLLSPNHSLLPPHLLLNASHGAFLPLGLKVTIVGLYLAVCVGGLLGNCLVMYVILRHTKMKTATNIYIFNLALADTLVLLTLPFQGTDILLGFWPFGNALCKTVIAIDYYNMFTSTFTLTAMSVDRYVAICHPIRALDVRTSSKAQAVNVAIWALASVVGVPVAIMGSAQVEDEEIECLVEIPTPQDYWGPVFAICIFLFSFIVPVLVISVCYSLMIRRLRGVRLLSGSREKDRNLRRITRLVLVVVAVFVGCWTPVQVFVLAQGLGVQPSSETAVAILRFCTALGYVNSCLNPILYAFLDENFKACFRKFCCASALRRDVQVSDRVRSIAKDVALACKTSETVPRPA

The inhibition is the relative decrease from the control value, in per cent.

Each structure is given as a SMILES string.

Turning to `CN(C)[C@]1(c2ccccc2)CC[C@]2(CC1)OCCc1c3cc(O)ccc3[nH]c12`, the Efficacy is 96% in experiment [1] and 75% in experiment [2].
Take `c1ccc([C@]2(N3CCCCC3)CC[C@]3(CC2)OCCc2c4ccccc4[nH]c23)cc1`: the inhibition in experiment [3] was 43%; in experiment [4] it was less than 10%.
`CN(C)[C@]1(c2ccccc2)CC[C@]2(CC1)NCCc1c3ccccc3[nH]c12`: the Efficacy in experiment [1] turned out to be 101%; in experiment [2], 108%.
With `c1ccc([C@]2(N3CCOCC3)CC[C@]3(CC2)OCCc2c4ccccc4[nH]c23)cc1`, the inhibition in experiment [3] and in experiment [4] was less than 10% each time.
Take `CN[C@]1(c2ccccc2)CC[C@]2(CC1)OCCc1c3cc(F)ccc3[nH]c12`: the inhibition result with Mus musculus [5] and with Mus musculus [6] was “Dose-dependent effect” each time. Also, the values for the Efficacy in experiment [1] and in experiment [2] were 110% and 101%, respectively.
Turning to `CN1CCN([C@]2(c3ccccc3)CC[C@@]3(CC2)OCCc2c4ccccc4[nH]c23)CC1`, the inhibition in experiment [3] and in experiment [4] was less than 10% throughout.

The values are drawn from ChEMBL document CHEMBL3352090, “Discovery of a Potent Analgesic NOP and Opioid Receptor Agonist: Cebranopadol” (2014).
